Measurements: patent US20230048888A1, “USE OF TRIAZOLOTRIAZINE DERIVATIVE IN TREATMENT OF DISEASES” (ZHEJIANG VIMGREEN PHARMACEUTICALS, LTD., priority 2019, published 2023)

Key:
human ADORA2B = biological target: T1, human ADORA2B (Homo sapiens, UniProt P29275); test: Calcium flow test (FLIPR), ADORA2B stably transfected HEK293; type: cell-based
T1 construct: host or cells: HEK293
T1 sequence (P29275 1-332): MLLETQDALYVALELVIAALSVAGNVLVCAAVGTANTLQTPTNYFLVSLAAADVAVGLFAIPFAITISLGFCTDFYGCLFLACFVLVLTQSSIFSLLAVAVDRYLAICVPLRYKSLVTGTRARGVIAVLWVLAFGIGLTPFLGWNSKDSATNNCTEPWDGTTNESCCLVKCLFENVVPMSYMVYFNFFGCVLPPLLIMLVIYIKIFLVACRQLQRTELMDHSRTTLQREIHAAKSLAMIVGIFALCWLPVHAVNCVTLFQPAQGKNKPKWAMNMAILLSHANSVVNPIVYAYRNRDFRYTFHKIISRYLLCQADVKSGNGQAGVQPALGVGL

[1] = biological target: T2, Human adenosine ADORA2B receptor membrane protein (Homo sapiens, UniProt P29275); test: Radioisotope ligand competitive binding, ADORA2B ([3H] DPCPX); conditions: ADORA2B (IC50, nM, n = 3), binding test
T2 construct: purchased PerkinElmer ES-013-M400UA
T2 sequence (P29275 1-332): T1 sequence (P29275 1-332)

Work on `Nc1nc2ccc(Cl)cc2c2nc(-c3ccco3)nn12` [CGS-15943, reference compound] yielded an IC50 (human ADORA2B) of 7.35 ± 2.12 nM, an IC50 ([1]; Table 10 (IC50)) of 4.71 ± 0.9 nM and an IC50 ([1]; Table 11) of 4.24 nM.
